The list shows a part of the results, in another mix than the full data. Calls of active or inactive are those of the source. Calls come from the whole dose curve; as a rule, active = well fitted activation curve with a large enough effect; inconclusive = small, poorly fitted or top-dose-only effect; inactive = no such curve, though single readings can be large or run the other way.

Amino acid sequences for entries named in this document (tags omitted).
UniProt Q8WZA2, whole entry: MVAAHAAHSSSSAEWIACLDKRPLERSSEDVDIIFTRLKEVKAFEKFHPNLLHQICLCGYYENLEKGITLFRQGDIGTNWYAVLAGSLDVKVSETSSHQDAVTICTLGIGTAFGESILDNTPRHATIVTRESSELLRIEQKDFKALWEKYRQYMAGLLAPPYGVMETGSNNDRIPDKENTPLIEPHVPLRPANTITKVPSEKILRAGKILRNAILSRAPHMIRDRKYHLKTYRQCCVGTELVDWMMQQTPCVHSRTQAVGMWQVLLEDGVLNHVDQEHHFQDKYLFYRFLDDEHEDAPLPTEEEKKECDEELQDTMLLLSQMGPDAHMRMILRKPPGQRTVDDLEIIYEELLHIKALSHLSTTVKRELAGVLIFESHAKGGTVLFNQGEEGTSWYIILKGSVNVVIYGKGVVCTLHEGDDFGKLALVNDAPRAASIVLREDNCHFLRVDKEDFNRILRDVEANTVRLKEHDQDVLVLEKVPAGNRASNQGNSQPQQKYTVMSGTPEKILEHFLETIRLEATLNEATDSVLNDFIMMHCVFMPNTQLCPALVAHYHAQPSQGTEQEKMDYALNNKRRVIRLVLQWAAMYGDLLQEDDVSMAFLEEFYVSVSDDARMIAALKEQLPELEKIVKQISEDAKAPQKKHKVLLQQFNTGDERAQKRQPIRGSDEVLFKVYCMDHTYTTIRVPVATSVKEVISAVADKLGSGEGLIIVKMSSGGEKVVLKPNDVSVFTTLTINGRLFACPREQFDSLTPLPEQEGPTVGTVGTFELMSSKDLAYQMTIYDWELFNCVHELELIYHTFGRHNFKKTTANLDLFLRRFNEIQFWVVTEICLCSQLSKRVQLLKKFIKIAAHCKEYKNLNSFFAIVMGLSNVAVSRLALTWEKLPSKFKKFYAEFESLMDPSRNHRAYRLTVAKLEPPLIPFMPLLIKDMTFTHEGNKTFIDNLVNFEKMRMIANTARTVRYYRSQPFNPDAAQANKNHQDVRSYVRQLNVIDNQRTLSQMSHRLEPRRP

The target of this experiment is Rap guanine nucleotide exchange factor 4 (Homo sapiens) (UniProt Q8WZA2). Put plainly: qHTS for Agonist of cAMP-regulated guanine nucleotide exchange factor 4 (EPAC2): primary screen. Note: nearly all actives have a fitted effect of over 50% in size. To be noted: biochemical qHTS, 100% = 6.5 mM cAMP response; at 154 µM (top of the series). The source says:
In multi-cellular eukaryotic organisms, the effects of cAMP are transduced by two ubiquitously-expressed intracellular cAMP receptors, the classic protein kinase A/cAMP-dependent protein kinase (PKA/cAPK) and the more recently discovered exchange protein directly activated by cAMP/cAMP-regulated guanine nucleotide exchange factor (EPAC/cAMP-GEF). Both PKA and EPAC are ubiquitously expressed in all tissues, and an increase in intracellular cAMP levels will lead to the activation of both PKA and EPAC. […]
This qHTS will be used to screen the Molecular Libraries Small Molecule Repository (MLSMR) as a concentration-titration series using the NCGC unique quantitative screening (qHTS) platform to find activators for EPAC2. […] Activators are identified by monitoring the change in fluorescence signal as the exchanged free BODIPY-GDP has a reduced fluorescence compared to Rap1-bound BODIPY-GDP. […]
Briefly, three uL of reagents (100 nM EPAC2, 250 nM RAP1B-BODIPY-GDP, 50 uM GDP) were dispensed into a 1536-well Greiner black solid-bottom medium binding assay plate. […] The assay plates were read at 5 minute intervals for 30 minutes in the ViewLux plate reader using 480nm excitation and 540nm emission filters. […]
In the case of `CCC(=O)N(c1ccccc1)C1(COC)CCN(CCn2nnn(CC)c2=O)CC1`, the activation was inactive: 8.93%.

With `CCC(=O)N(c1ccccc1)C1(COC)CCN(CCc2cccs2)CC1`, the activation was inactive: 9.22%.

(Values after PubChem BioAssay AID720711 (National Center for Advancing Translational Sciences (NCATS), 2013).)
